Experimental findings from PubChem BioAssay AID504842 (National Center for Advancing Translational Sciences (NCATS), 2011) are described below.

The entries are a selection whose mix differs from that of the whole data set. The source made the active and inactive calls. The call rests on the fitted dose curve; in most records, active means well fitted inhibition curve with a large enough effect; inconclusive means small, poorly fitted or top-dose-only effect; inactive means flat fitted curve, though single readings scatter.
On the % scale 0 is the no-effect control and ±100 the full control effect.

The subject of the experiment is Chaperonin Mm-Cpn (Methanococcus maripaludis). Description: Inhibitors of TCP-1 ring complex (TRiC) of Methanococcus maripaludis (MmCpn): qHTS. Further: nearly all actives have a fitted effect of over 80% in size. As to conditions: purified Mm-Cpn ATPase, ADP Transcreener TR-FRET; at 76.9 µM (top of the series). The source says: The eukaryotic chaperonin TRiC (for TCP-1 ring complex) is an essential and conserved chaperone required for the folding and activation of 10-15% of the proteins encoded by the human genome. […] The TRiC complex consist of two stacked 7-9 membered rings, each containing a central cavity. Substrates are folded within the cavity in an ATP-dependent manner. TRiC is a complex of eight different, essential proteins. As each of the genes encoding the eight subunits is essential for cell viability and no protocol has been developed to over-express this enzyme to high levels. […] This assay applied the time resolved fluorescence resonance energy transfer (TR-FRET) principle. […]
Purified Mm-CPN was supplied by the laboratory of Dr. Judith Frydman. […] Plates were read on the PerkinElmer EnVision plate reader using Excitation = 320 nm and Emission = […], 665 nm. Protocol- 1.Dispense 1.5ul per well of working [Mm-CPN] = 50nM (or 75 ng / well) 2.Spin plate at 1000 rpm for 30 seconds 3.23nl of compound transferred per well 4.Incubate at 37degC for 10 minutes 5.Dispense 1.5ul per well of working [ATP] = 20uM 6.Incubate at 37degC for 30 minutes 7.Dispense 3ul per well of Anti-ADP Cryptate / ADP-d2 mix (prepared as instructed by Cisbio) 8.Incubate at ambient for 30 minutes 9.Read using EnVision
On the technique in general: In qHTS, concentration-response curves come from the screen itself.
Consider `CCC(=O)N(c1ccccc1)C1(COC)CCN(CCn2nnn(CC)c2=O)CC1`, for which the activity, negative = inhibition was inactive: 0.223%.

With `CCC(=O)N(c1ccccc1)C1(COC)CCN(CCc2cccs2)CC1`, the activity, negative = inhibition is inactive: 2.12%.
